{
  "sequences": {"note": "Sequences of proteins named here, by UniProt entry; tags and fusion partners are left off. Residues count along the entry.", "UniProt Q6P988, 20-496": "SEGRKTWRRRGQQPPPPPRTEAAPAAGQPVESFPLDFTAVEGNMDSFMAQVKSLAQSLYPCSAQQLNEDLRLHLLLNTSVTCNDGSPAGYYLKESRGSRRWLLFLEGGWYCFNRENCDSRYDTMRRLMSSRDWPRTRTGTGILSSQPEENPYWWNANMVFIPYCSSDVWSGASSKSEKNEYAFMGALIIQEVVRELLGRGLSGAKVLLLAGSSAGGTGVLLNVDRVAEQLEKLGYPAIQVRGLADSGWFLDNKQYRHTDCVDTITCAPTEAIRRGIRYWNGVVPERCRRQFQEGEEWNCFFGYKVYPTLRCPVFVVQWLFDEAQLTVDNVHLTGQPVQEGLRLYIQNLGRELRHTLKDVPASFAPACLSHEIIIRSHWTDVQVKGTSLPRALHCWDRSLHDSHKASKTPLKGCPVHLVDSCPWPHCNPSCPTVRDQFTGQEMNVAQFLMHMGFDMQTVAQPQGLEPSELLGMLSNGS"},
  "source": "patent US11634391B2",
  "about": "(dated 2023)",
  "target": "notum carboxyesterase enzyme (Homo sapiens (Human), UniProt Q6P988)",
  "experiment": "Biochemical Notum Enzymatic Activity Assay (OPTS substrate, fluorescence)",
  "conditions": "2 μM OPTS solution, 2.38 nM notum enzyme solution, 1 hour incubation at room temperature, fluorescence ex 485 nm / em 520 nm; n≥2",
  "data": [
    {"substance": "(1-(3,4-dichlorophenyl)-1H-1,2,3-triazol-4-yl)methanesulfonate [Compound 46]", "values": [
      {"measurement": "IC50", "value": 18.5, "unit": "µM"}
    ]}
  ]
}
